# Test results published in PubChem BioAssay AID1671463 (Sanford-Burnham Center for Chemical Genomics, 2021).
# The chains behind the UniProt entries cited, without tags or fusion partners.
# UniProt P16066, whole entry: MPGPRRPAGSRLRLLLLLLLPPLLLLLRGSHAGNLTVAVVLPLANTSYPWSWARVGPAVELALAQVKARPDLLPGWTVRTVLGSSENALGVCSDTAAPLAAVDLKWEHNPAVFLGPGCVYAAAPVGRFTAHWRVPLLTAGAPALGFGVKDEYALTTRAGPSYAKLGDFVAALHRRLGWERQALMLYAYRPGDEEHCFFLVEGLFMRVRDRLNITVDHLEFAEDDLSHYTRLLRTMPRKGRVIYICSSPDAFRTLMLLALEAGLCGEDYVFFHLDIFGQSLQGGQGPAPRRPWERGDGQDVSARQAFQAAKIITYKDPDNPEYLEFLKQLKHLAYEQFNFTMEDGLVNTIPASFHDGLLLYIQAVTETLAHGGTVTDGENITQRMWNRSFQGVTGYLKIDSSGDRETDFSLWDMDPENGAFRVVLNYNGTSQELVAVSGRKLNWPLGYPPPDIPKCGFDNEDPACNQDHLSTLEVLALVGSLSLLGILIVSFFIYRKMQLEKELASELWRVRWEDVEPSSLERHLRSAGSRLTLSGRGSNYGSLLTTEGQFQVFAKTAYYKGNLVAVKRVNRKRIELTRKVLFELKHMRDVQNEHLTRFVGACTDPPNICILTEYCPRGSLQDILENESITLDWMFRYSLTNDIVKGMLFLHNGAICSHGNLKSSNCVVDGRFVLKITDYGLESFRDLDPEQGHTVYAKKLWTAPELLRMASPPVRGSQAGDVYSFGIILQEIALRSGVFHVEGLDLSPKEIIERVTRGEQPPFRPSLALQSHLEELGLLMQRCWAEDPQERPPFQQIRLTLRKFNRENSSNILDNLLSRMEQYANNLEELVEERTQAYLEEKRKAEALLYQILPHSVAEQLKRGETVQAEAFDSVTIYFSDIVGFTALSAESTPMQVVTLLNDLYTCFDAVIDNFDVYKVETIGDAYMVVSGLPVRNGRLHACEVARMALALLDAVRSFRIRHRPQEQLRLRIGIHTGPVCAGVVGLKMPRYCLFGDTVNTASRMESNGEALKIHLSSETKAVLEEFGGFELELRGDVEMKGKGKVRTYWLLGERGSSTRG
# The entries are a selection whose mix differs from that of the whole data set. Some salts or complexes appear as unconnected parts, following the source record. The source made the active and inactive calls. Rule as the data show it: active = activation above about 40%; inactive = the rest.
# Molecular target: Atrial natriuretic peptide receptor 1 (Homo sapiens) (UniProt P16066)
# Experiment: GC-A stimulated cGMP production enhancers – HEK293 GC-A cells, cGMP TR-FRET, EC30 ANP, primary screen (AID 1671463)
# Conditions: at 10 µM, active compounds read high, 0% at EC30 ANP, 100% saturating ANP
row,SMILES,activation
1,Nc1ccc2c(ccc3cccnc32)n1.O=[N+]([O-])c1cc([N+](=O)[O-])c(O)c([N+](=O)[O-])c1,inactive: 4.53%
2,CP(=O)(OC12CC3CC(CC(C3)C1)C2)OC12CC3CC(CC(C3)C1)C2,inactive: 2.71%
3,CCOC(=O)c1ccc(NP(C)(=O)Oc2ccc(Cl)cc2)cc1 (configuration not stated),inactive: 1.69%
4,COc1ccc(OP(C)(=O)Nc2ccc(Br)cc2)cc1 (configuration not stated),inactive: -7.46%
5,CCc1ccc(OP(C)(=O)Nc2cccnc2)cc1 (configuration not stated),inactive: 1.27%
6,CP(=O)(Oc1ccccc1)N1CCOC1=O (configuration not stated),inactive: 4.45%
7,O=C(OCCCN1CCCC1)C(O)(c1ccccc1)C1CCCCC1 (configuration not stated),inactive: 1.36%
8,COc1ccccc1OP(C)(=O)Nc1c(C)n(C)n(-c2ccccc2)c1=O (configuration not stated),inactive: 1.83%
9,CP(=O)(Nc1ccc(Cl)cc1)Oc1ccc(F)cc1 (configuration not stated),inactive: -10.8%
10,COc1ccccc1OP(C)(=O)Nc1ccccc1Br (configuration not stated),inactive: -6.63%
11,CC(C)(C)c1ccc(OP(C)(=O)O)cc1,inactive: 0.21%
12,CN(C)C(=O)c1c([N+](=O)[O-])cc([N+](=O)[O-])cc1[N+](=O)[O-],inactive: 1.56%
13,COc1ccccc1OP(C)(=O)Nc1ccc(Br)cc1 (configuration not stated),inactive: -9.37%
14,CN(C)CCOC(=O)C(O)(c1ccccc1)C1CCCC1 (configuration not stated),inactive: -1.52%
15,COc1ccc(OP(C)(=O)Nc2ccccn2)cc1 (configuration not stated),inactive: -0.29%
16,Cc1c(NP(C)(=O)Oc2ccc(C(C)C)cc2)c(=O)n(-c2ccccc2)n1C (configuration not stated),inactive: -4.76%
17,O=[N+]([O-])c1cc([N+](=O)[O-])c(Nc2ccccn2)c([N+](=O)[O-])c1,inactive: -2.64%
18,CCc1ccc(OP(C)(=O)O)cc1,inactive: 2.3%
19,COc1ccccc1OP(C)(=O)Nc1ccc(C)cc1C (configuration not stated),inactive: -1.81%

row,SMILES,activation
1,CP(=O)(Nc1ccccn1)Oc1ccccc1 (configuration not stated),inactive: -1.03%
2,Cc1cc(C)cc(OP(C)(=O)Nc2cccc(C(F)(F)F)c2)c1 (configuration not stated),inactive: -3.19%
3,O=C1C(O)=C([N+](=O)[O-])C(=O)C(O)=C1[N+](=O)[O-],inactive: 3.84%
4,COc1ccc(OP(C)(=O)Nc2ccccc2Br)cc1 (configuration not stated),inactive: -5.44%
5,COc1ccccc1OP(C)(=O)Nc1ccc(C)c(C)c1 (configuration not stated),inactive: 3.93%
6,CP(=O)(Nc1ccc(Cl)cc1Cl)Oc1ccccc1 (configuration not stated),inactive: -18.4%
7,CCCCCCCCCCCCCCCC1C[N+](C)(C)CCOP(C)(=O)O1 (configuration not stated),inactive: -31.1%
8,CP(=O)(OCCOc1ccccc1)OCCOc1ccccc1,inactive: -2.41%
9,CCN(CC)CCCNc1ccccc1[N+](=O)[O-].O=[N+]([O-])c1cc([N+](=O)[O-])c(O)c([N+](=O)[O-])c1,inactive: -1.89%
10,COc1ccc(OP(C)(=O)Nc2ccc(SC(F)(F)F)cc2)cc1 (configuration not stated),inactive: 2.97%
11,CCOC(=O)c1ccc(NP(C)(=O)Oc2ccc(F)cc2)cc1 (configuration not stated),inactive: 1.9%
12,CCN(CC)CCCOC(=O)C(O)(c1ccccc1)C1CCCCC1 (configuration not stated),inactive: 0.74%
13,Cc1c([N+](=O)[O-])cc([N+](=O)[O-])c(Br)c1[N+](=O)[O-],inactive: -1.4%
14,O=[N+]([O-])c1cc([N+](=O)[O-])c(OC2CCCCC2O)c([N+](=O)[O-])c1 (configuration not stated),inactive: -0.97%
15,CCCCCOc1ccc(NP(C)(=O)Oc2ccc(Cl)cc2Cl)cc1 (configuration not stated),inactive: 1.86%
16,CP(=O)(Nc1ccccc1)Oc1ccc(F)cc1 (configuration not stated),inactive: -5.56%
17,O=[N+]([O-])c1cc([N+](=O)[O-])c(Nc2ccc(Cl)cc2)c([N+](=O)[O-])c1,inactive: 7.46%
18,CC(C)c1ccc(OP(C)(=O)Nc2ccc(SC(F)(F)F)cc2)cc1 (configuration not stated),inactive: 4.58%
19,CP(=O)(Nc1ccccc1F)Oc1ccccc1 (configuration not stated),inactive: -3.42%

row,SMILES,activation
1,O=C(OCCN1CCN(CCOCc2ccccc2)CC1)C(O)(c1ccccc1)c1ccccc1,inactive: -1.52%
2,O=C(OC1CN2CCC1CC2)c1ccc([N+](=O)[O-])cc1 (configuration not stated),inactive: -3.93%
3,COc1ccc2c(c1O)-c1c(O)c(OC)cc3c1[C@H](C2)[N+](C)(C)CC3.O=[N+]([O-])c1cc([N+](=O)[O-])c([O-])c([N+](=O)[O-])c1[O-],inactive: -4.77%
4,CP(=O)(Nc1ccc(SC(F)(F)F)cc1)Oc1ccc(F)cc1 (configuration not stated),inactive: 6.82%
5,CCOP(=O)(CC)OCC,inactive: -0.42%
6,CCOP(C)(=S)SCC(=O)NC(C)(CC)C(=O)O (configuration not stated),inactive: 0.63%
7,CP(=O)(Nc1ccc2c(c1)OCCO2)Oc1ccccc1 (configuration not stated),inactive: 1.05%
8,O=[N+]([O-])c1cc([N+](=O)[O-])c(C(F)(F)F)c([N+](=O)[O-])c1O,inactive: -6.67%
9,Cc1ccccc1NP(C)(=O)Nc1ccccc1C,inactive: -0.98%
10,COc1ccc(OP(C)(=O)Nc2cccc(Br)c2)cc1 (configuration not stated),inactive: -8.02%
11,COc1ccc(NP(C)(=O)Oc2ccccc2OC)cc1 (configuration not stated),inactive: 1.99%
12,CN(C)CCOC(=O)C(O)(c1ccccc1)C1CCCCC1 (configuration not stated),inactive: -2.22%
13,O=[N+]([O-])c1cc([N+](=O)[O-])c(NCC2CCS(=O)(=O)C2)c([N+](=O)[O-])c1 (configuration not stated),inactive: 1.26%
14,Cc1cc(-c2cccc3ccccc23)c(C)cn1.O=[N+]([O-])c1cc([N+](=O)[O-])c(O)c([N+](=O)[O-])c1,inactive: -2.51%
15,O=[N+]([O-])c1ccc(OP2(=O)COCCO2)cc1 (configuration not stated),inactive: 2.38%
16,Cc1c(C(c2ccc3c(c2)OCO3)c2c(C)n(C)n(-c3ccccc3)c2=O)c(=O)n(-c2ccccc2)n1C.O=[N+]([O-])c1cc([N+](=O)[O-])c(O)c([N+](=O)[O-])c1,inactive: 0.2%
17,CCOC(=O)C(CC)C1=NC(C)(C)Cc2ccccc21.O=[N+]([O-])c1cc([N+](=O)[O-])c(O)c([N+](=O)[O-])c1 (configuration not stated),inactive: -6.12%
18,O=[N+]([O-])c1cc([N+](=O)[O-])c(Nc2nnnn2CCO)c([N+](=O)[O-])c1,inactive: -0.47%
19,CN1CCCCC1COC(=O)C1(O)c2ccccc2CCc2ccccc21 (configuration not stated),inactive: -18.4%
